{
  "source": "patent US20130011427A1",
  "about": "(priority 2009, published 2013)",
  "system": "HLA-A24/huCD8α (HLA-A*2402) Tg mice, CD4-depleted splenocytes",
  "assay_type": "cell-based, mouse",
  "data": [
    {"sequence": "AKGSRAIWFMWLGARFL [NS5 470-486]", "values": [
      {"measurement": "T cell activation of HLA transgenic mice (SFC/10^6) IFN-γ ELISpot, A24", "result": "183 ± 19", "unit": "SFC/10^6"}
    ]}
  ]
}
